# Test results from US20160025730A1, “METHODS OF SELECTING COMBINATION THERAPY FOR COLORECTAL CANCER PATIENTS” (NESTEC S.A., priority 2013, published 2016).
# Key:
# HER2 = assay: CEER total HER2 expression level; assay type: cell-based, human; conditions: for Total HER2 (0.2 ug): Lim1215 cells, assay range 390-25000
# HER3 [1] = assay: CEER total HER3 expression level; assay type: cell-based, human; conditions: for Total HER3 (0.2 ug): Lim1215 cells, assay range 390-25000
# RSK = assay: CEER phospho RSK level; assay type: cell-based, human; conditions: Lim1215 cells, assay range 2.56-100
# Description: These were complemented by ErbB heterodimerization assays using CEER.
# AKT = assay: CEER phospho AKT level; conditions: Lim1215 cells, assay range 1.02-40
# ERK = assay: CEER phospho ERK level; conditions: Lim1215 cells, assay range 1.02-100
# MEK = assay: CEER phospho MEK level; conditions: Lim1215 cells, assay range 1.02-100
# HER1 = assay: CEER total HER1 expression level; conditions: Lim1215 cells, assay range 7.8-500
# HER3 [2] = assay: CEER phospho HER3 activation level; conditions: Lim1215 cells, assay range 12.8-1500
# HER2:HER3 = assay: CEER ErbB heterodimerization assay, HER2:HER3 dimer; conditions: Lim1215 cells, assay range 50-1500
# HER1:HER2 = assay: CEER ErbB heterodimerization assay, HER1:HER2 dimer; conditions: Lim1215 cells, assay range 7.8-1000
# HER1:HER3 = assay: CEER ErbB heterodimerization assay, HER1:HER3 dimer; conditions: Lim1215 cells, assay range 200-20000
# [3] = EGFR sensitive colorectal cancer cell lines, up to 24 h of treatment
substance,measurement,setting,value
cetuximab,HER2 protein levels (in words),HER2; [3],steady increase
same,Total HER2 (0.2 ug),"HER2; 24 h, series 2 (FIG. 2; Control 4212)",9079
same,Total HER2 (0.2 ug),"HER2; 24 h, series 3 (FIG. 3; control 3025)",5678
same,Total HER2 (0.2 ug),"HER2; 24 h, series 4 (FIG. 4; DMSO 2581)",4147
same,Total HER2 (0.2 ug),HER2; cetuximab 0 h,2127
same,Total HER2 (0.2 ug),HER2; cetuximab 30 min,2532
same,Total HER2 (0.2 ug),HER2; cetuximab 1 h,2853
same,Total HER2 (0.2 ug),HER2; cetuximab 2 h,2625
same,Total HER2 (0.2 ug),HER2; cetuximab 4 h,2529
same,Total HER2 (0.2 ug),HER2; cetuximab 6 h,2229
same,Total HER2 (0.2 ug),HER2; cetuximab 8 h,3109
same,HER3 protein levels (in words),HER3 [1]; [3],steady increase
same,Total HER3 (0.2 ug),"HER3 [1]; 24 h, series 2 (FIG. 2; Control 7757)",16288
same,Total HER3 (0.2 ug),"HER3 [1]; 24 h, series 3 (FIG. 3; control 4282)",8514
same,Total HER3 (0.2 ug),"HER3 [1]; 24 h, series 4 (FIG. 4; DMSO 3388)",7789
same,Total HER3 (0.2 ug),HER3 [1]; cetuximab 0 h,3882
same,Total HER3 (0.2 ug),HER3 [1]; cetuximab 30 min,4115
same,Total HER3 (0.2 ug),HER3 [1]; cetuximab 1 h,5073
same,Total HER3 (0.2 ug),HER3 [1]; cetuximab 2 h,4707
same,Total HER3 (0.2 ug),HER3 [1]; cetuximab 4 h,5219
same,Total HER3 (0.2 ug),HER3 [1]; cetuximab 6 h,4976
same,Total HER3 (0.2 ug),HER3 [1]; cetuximab 8 h,5360
same,Phos RSK (10 ug),"RSK; 24 h, series 2 (FIG. 2; Control 289 >ULOQ)",5.4 pg/µg
same,Phos RSK (10 ug),"RSK; 24 h, series 3 (FIG. 3; control […] >ULOQ)",7.1 pg/µg
same,Phos RSK (10 ug),"RSK; 24 h, series 4 (FIG. 4; DMSO 91.4)",4.4 pg/µg
same,Phos RSK (10 ug),RSK; cetuximab 0 h,76.0 pg/µg
same,Phos RSK (10 ug),RSK; cetuximab 30 min,46.8 pg/µg
same,Phos RSK (10 ug),RSK; cetuximab 1 h,45.7 pg/µg
same,Phos RSK (10 ug),RSK; cetuximab 2 h,22.9 pg/µg
same,Phos RSK (10 ug),RSK; cetuximab 4 h,10.9 pg/µg
same,Phos RSK (10 ug),RSK; cetuximab 6 h,8.4 pg/µg
same,Phos RSK (10 ug),RSK; cetuximab 8 h,5.2 pg/µg
same,Phos AKT (10 ug),"AKT; 24 h, series 2 (FIG. 2; Control 9.6)",1.8 pg/µg
same,Phos AKT (10 ug),AKT; cetuximab 0 h,3.5 pg/µg
same,Phos AKT (10 ug),AKT; cetuximab 1 h,3.6 pg/µg
same,Phos AKT (10 ug),AKT; cetuximab 2 h,1.8 pg/µg
same,Phos AKT (10 ug),AKT; cetuximab 4 h,1.3 pg/µg
same,Phos AKT (10 ug),AKT; cetuximab 6 h,1.7 pg/µg
same,Phos AKT (10 ug),AKT; cetuximab 8 h,1.7 pg/µg
same,Phos ERK (10 ug),"ERK; 24 h, series 2 (FIG. 2; Control 5.7)",0.87 pg/µg
same,Phos ERK (10 ug),"ERK; 24 h, series 3 (FIG. 3; control 5.3)",1.1 pg/µg
same,Phos ERK (10 ug),"ERK; 24 h, series 4 (FIG. 4; DMSO 3.3)",0.49 pg/µg
same,Phos ERK (10 ug),ERK; cetuximab 0 h,3.3 pg/µg
same,Phos ERK (10 ug),ERK; cetuximab 30 min,1.1 pg/µg
same,Phos ERK (10 ug),ERK; cetuximab 2 h,1.4 pg/µg
same,Phos ERK (10 ug),ERK; cetuximab 4 h,1.1 pg/µg
same,Phos ERK (10 ug),ERK; cetuximab 6 h,0.56 pg/µg
same,Phos ERK (10 ug),ERK; cetuximab 8 h,0.7 pg/µg
same,Phos MEK (10 ug),"MEK; 24 h, series 2 (FIG. 2; Control 38.0)",7.0 pg/µg
same,Phos MEK (10 ug),"MEK; 24 h, series 3 (FIG. 3; control 16.3)",2.7 pg/µg
same,Phos MEK (10 ug),"MEK; 24 h, series 4 (FIG. 4; DMSO 9.8)",1.5 pg/µg
same,Phos MEK (10 ug),MEK; cetuximab 0 h,16.6 pg/µg
same,Phos MEK (10 ug),MEK; cetuximab 30 min,9.0 pg/µg
same,Phos MEK (10 ug),MEK; cetuximab 1 h,7.3 pg/µg
same,Phos MEK (10 ug),MEK; cetuximab 2 h,7.0 pg/µg
same,Phos MEK (10 ug),MEK; cetuximab 4 h,3.4 pg/µg
same,Phos MEK (10 ug),MEK; cetuximab 6 h,2.9 pg/µg
same,Phos MEK (10 ug),MEK; cetuximab 8 h,2.5 pg/µg
same,Total HER1 (1 ug),"HER1; 24 h, series 2 (FIG. 2; Control 171.4)",129.2
same,Total HER1 (1 ug),"HER1; 24 h, series 3 (FIG. 3; control 137.2)",86.9
same,Total HER1 (1 ug),"HER1; 24 h, series 4 (FIG. 4; DMSO 96.8)",46.5
same,Total HER1 (1 ug),HER1; cetuximab 0 h,74.4
same,Total HER1 (1 ug),HER1; cetuximab 30 min,40.9
same,Total HER1 (1 ug),HER1; cetuximab 1 h,67.4
same,Total HER1 (1 ug),HER1; cetuximab 2 h,46.9
same,Total HER1 (1 ug),HER1; cetuximab 4 h,52.8
same,Total HER1 (1 ug),HER1; cetuximab 6 h,60.2
same,Total HER1 (1 ug),HER1; cetuximab 8 h,14.4
same,Phos HER3 (10 ug),"HER3 [2]; 24 h, series 2 (FIG. 2; Control 236)",651
same,Phos HER3 (10 ug),"HER3 [2]; 24 h, series 3 (FIG. 3; control 573)",1450
same,Phos HER3 (10 ug),"HER3 [2]; 24 h, series 4 (FIG. 4; DMSO 204)",637
same,Phos HER3 (10 ug),HER3 [2]; cetuximab 0 h,257
same,Phos HER3 (10 ug),HER3 [2]; cetuximab 30 min,223
same,Phos HER3 (10 ug),HER3 [2]; cetuximab 1 h,263
same,Phos HER3 (10 ug),HER3 [2]; cetuximab 2 h,261
same,Phos HER3 (10 ug),HER3 [2]; cetuximab 4 h,264
same,Phos HER3 (10 ug),HER3 [2]; cetuximab 6 h,200
same,Phos HER3 (10 ug),HER3 [2]; cetuximab 8 h,273
same,ErbB Dimer Formation HER2:HER3 (2 ug),"HER2:HER3; 24 h, series 2 (FIG. 2; Control 250.9)",1343.1
same,ErbB Dimer Formation HER2:HER3 (2 ug),"HER2:HER3; 24 h, series 3 (FIG. 3; control 211.8)",952.8
same,ErbB Dimer Formation HER2:HER3 (2 ug),"HER2:HER3; 24 h, series 4 (FIG. 4; DMSO 172.5)",434.0
same,ErbB Dimer Formation HER2:HER3 (2 ug),HER2:HER3; cetuximab 0 h,89.8
same,ErbB Dimer Formation HER2:HER3 (2 ug),HER2:HER3; cetuximab 30 min,81.6
same,ErbB Dimer Formation HER2:HER3 (2 ug),HER2:HER3; cetuximab 1 h,101.1
same,ErbB Dimer Formation HER2:HER3 (2 ug),HER2:HER3; cetuximab 2 h,80.9
same,ErbB Dimer Formation HER2:HER3 (2 ug),HER2:HER3; cetuximab 4 h,73.5
same,ErbB Dimer Formation HER2:HER3 (2 ug),HER2:HER3; cetuximab 6 h,126.6
same,ErbB Dimer Formation HER2:HER3 (2 ug),HER2:HER3; cetuximab 8 h,112.2
same,ErbB Dimer Formation HER1:HER2 (2 ug),"HER1:HER2; 24 h, series 2 (FIG. 2; Control 128.5)",197.8
same,ErbB Dimer Formation HER1:HER2 (2 ug),"HER1:HER2; 24 h, series 3 (FIG. 3; control 46.0)",79.5
same,ErbB Dimer Formation HER1:HER2 (2 ug),"HER1:HER2; 24 h, series 4 (FIG. 4; DMSO 42.7)",58.3
same,ErbB Dimer Formation HER1:HER2 (2 ug),HER1:HER2; cetuximab 0 h,46.2
same,ErbB Dimer Formation HER1:HER2 (2 ug),HER1:HER2; cetuximab 30 min,36.9
same,ErbB Dimer Formation HER1:HER2 (2 ug),HER1:HER2; cetuximab 1 h,49.3
same,ErbB Dimer Formation HER1:HER2 (2 ug),HER1:HER2; cetuximab 2 h,35.4
same,ErbB Dimer Formation HER1:HER2 (2 ug),HER1:HER2; cetuximab 4 h,34.5
same,ErbB Dimer Formation HER1:HER2 (2 ug),HER1:HER2; cetuximab 6 h,38.0
same,ErbB Dimer Formation HER1:HER2 (2 ug),HER1:HER2; cetuximab 8 h,36.7
same,ErbB Dimer Formation HER1:HER3 (0.5 ug),"HER1:HER3; 24 h, series 2 (FIG. 2; Control 387)",645
same,ErbB Dimer Formation HER1:HER3 (0.5 ug),"HER1:HER3; 24 h, series 3 (FIG. 3; control 398)",1090
same,ErbB Dimer Formation HER1:HER3 (0.5 ug),"HER1:HER3; 24 h, series 4 (FIG. 4; DMSO 186)",353
same,ErbB Dimer Formation HER1:HER3 (0.5 ug),HER1:HER3; cetuximab 0 h,121
same,ErbB Dimer Formation HER1:HER3 (0.5 ug),HER1:HER3; cetuximab 30 min,128
same,ErbB Dimer Formation HER1:HER3 (0.5 ug),HER1:HER3; cetuximab 1 h,107
same,ErbB Dimer Formation HER1:HER3 (0.5 ug),HER1:HER3; cetuximab 2 h,89
same,ErbB Dimer Formation HER1:HER3 (0.5 ug),HER1:HER3; cetuximab 4 h,116
same,ErbB Dimer Formation HER1:HER3 (0.5 ug),HER1:HER3; cetuximab 6 h,147
same,ErbB Dimer Formation HER1:HER3 (0.5 ug),HER1:HER3; cetuximab 8 h,129
